In patent publication US8299096B2, “Method for treating pulmonary diseases using rho kinase inhibitor compounds” (priority 2008, dated 2012):

Tested on: LPS-stimulated human monocytes
Test: Human monocyte cytokine secretion assay (LPS-stimulated)
Type: cell-based
Settings: potency determinations

| SMILES | Secretion of IL-1β, TNF-α and IL-9 from LPS-stimulated human monocytes |
| --- | --- |
| NC(=O)Cn1ccc2cc(CN3CC[C@@H](Nc4cccc5cnccc45)C3)ccc21 [Compound 2.059] | dose-dependently reduced |
| OCCn1ccc2cc(CN3CC[C@@H](Nc4cccc5cnccc45)C3)ccc21 [Compound 2.066] | dose-dependently reduced |
